Experimental data published in patent US20090215857A1 (Pfizer Products Inc., priority 2005, published 2009).

Sequences of proteins named here, by UniProt entry; tags and fusion partners are left off.
UniProt P23975, whole entry: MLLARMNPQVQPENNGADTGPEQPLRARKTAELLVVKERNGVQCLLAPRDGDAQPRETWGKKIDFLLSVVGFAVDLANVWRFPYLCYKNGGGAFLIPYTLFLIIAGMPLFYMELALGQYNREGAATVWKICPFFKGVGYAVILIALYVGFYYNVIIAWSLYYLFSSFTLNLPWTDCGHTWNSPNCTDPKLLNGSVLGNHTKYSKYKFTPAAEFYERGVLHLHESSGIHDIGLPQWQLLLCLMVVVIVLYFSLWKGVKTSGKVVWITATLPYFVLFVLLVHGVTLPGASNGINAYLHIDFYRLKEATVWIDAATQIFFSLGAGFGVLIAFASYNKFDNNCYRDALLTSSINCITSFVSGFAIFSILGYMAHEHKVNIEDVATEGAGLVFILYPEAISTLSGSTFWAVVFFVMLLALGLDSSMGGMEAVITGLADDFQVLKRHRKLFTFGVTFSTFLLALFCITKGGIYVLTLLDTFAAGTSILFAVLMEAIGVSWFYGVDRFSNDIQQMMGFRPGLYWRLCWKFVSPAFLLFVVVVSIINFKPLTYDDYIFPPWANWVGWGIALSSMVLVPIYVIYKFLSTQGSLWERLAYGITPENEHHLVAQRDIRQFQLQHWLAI
UniProt P31645, whole entry: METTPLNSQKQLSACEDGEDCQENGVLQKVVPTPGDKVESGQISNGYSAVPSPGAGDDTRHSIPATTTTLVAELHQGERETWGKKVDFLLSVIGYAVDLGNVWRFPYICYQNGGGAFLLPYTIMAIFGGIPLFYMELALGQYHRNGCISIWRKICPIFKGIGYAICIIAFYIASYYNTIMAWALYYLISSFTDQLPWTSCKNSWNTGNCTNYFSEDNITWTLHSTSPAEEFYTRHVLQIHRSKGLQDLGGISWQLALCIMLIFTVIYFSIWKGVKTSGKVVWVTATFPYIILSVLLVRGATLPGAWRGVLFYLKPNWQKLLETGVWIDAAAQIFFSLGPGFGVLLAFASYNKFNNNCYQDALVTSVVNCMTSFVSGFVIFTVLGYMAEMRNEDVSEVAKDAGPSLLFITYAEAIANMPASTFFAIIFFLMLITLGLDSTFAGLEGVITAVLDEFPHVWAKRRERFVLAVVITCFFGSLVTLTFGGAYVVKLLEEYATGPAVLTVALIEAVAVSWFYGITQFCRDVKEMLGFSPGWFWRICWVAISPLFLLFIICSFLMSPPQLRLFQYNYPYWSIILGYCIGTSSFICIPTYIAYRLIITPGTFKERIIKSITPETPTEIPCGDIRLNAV

Experiments:
[1] = target: T1, human norepinephrine transporter (Homo sapiens, UniProt P23975); test: hNET receptor binding ([125I]-RTI-55 radioligand); settings: membranes of HEK-293 cells transfected with human norepinephrine transporter cDNA; 50 pM [125I]-RTI-55; IC50 converted by Cheng-Prusoff; read-out: NET Ki
T1 construct: expressed in transfected cells; host or cells: HEK-293
Description: (§1) Cell pastes of HEK-293 cells transfected with a human norepinephrine transporter cDNA were prepared. The cell pastes were resuspended in 400 to 700 ml of Krebs-HEPES assay buffer (25 mM HEPES, 122 mM NaCl, 3 mM KCl, 1.2 mM MgSO4, 1.3 mM CaCl2, and 11 mM glucose, pH 7.4) with a Polytron homogenizer at setting 7 for 30 seconds. Aliquots of membranes (5 mg/ml protein) were stored in liquid nitrogen until used.
The binding assay was set up in Beckman deep-well polypropylene plates with a total volume of 250 μl containing: test compound (10^−5M to 10^−12M), cell membranes, and 50 pM [^125I]-RTI-55 (Perkin Elmer, NEX-272; specific activity 2200 Ci/mmol). The reaction was incubated by gentle agitation for 90 minutes at room temperature and was terminated by filtration through Whatman GF/C filter plates using a Brandel 96-well plate harvester. Scintillation fluid (100 μl) was added to each well, and bound [^125I]-RTI-55 was determined using a Wallac Trilux Beta Plate Counter. Test compounds were run in duplicate, and specific binding was defined as the difference between binding in the presence and absence of 10 μM desipramine.
Excel and GraphPad Prism software were used for data calculation and analysis. IC50 values were converted to K, values using the Cheng-Prusoff equation.

[2] = target: T2, human serotonin transporter (Homo sapiens, UniProt P31645); test: hSERT receptor binding ([125I]-RTI-55 radioligand); settings: membranes of HEK-293 cells transfected with human serotonin transporter cDNA; 50 pM [125I]-RTI-55; IC50 converted by Cheng-Prusoff; read-out: SERT Ki
T2 construct: expressed in transfected cells; host or cells: HEK-293
Description: as §1, with “serotonin” for “norepinephrine”, “Setting” for “setting”, “(˜2.5” for “(5”
Assays were set up in FlashPlates pre-coated with 0.1% PEI in a total volume of 250 μl containing: test compound (10^−5M to 10^−12M), cell membranes, and 50 pM [^125I]-RTI-55 (Perkin Elmer, NEX-272; specific activity 2200 Ci/mmol). The reaction was incubated and gently agitated for 90 minutes at room temperature, and terminated by removal of assay volume. Plates were covered, and bound [^125I]-RTI-55 was determined using a Wallac Trilux Beta Plate Counter. Test compounds were run in duplicate, and specific binding was defined as the difference between binding in the presence and absence of 10 μM citalopram.
Excel and GraphPad Prism software were used for data calculation and analysis. IC50 values were converted to Ki values using the Cheng-Prusoff equation.

Work on “(S)-3-(4-Fluoro-2′-methoxy-5′-biphenyl-2-ylmethoxy)-pyrrolidine [Example D-96]” yielded a Ki [1] of 591 nM and a Ki [2] of 1380 nM.
